The results in this text go back to article PMC5329011 (Frontiers in Neuroscience, 2017).

A word on the Ki: it is a dissociation constant, usually derived from enzyme kinetics or from competition with a known ligand.

Assay [1] deals with T1, apelin receptor (Homo sapiens, UniProt P35414).
T1 sequence (P35414 1-380): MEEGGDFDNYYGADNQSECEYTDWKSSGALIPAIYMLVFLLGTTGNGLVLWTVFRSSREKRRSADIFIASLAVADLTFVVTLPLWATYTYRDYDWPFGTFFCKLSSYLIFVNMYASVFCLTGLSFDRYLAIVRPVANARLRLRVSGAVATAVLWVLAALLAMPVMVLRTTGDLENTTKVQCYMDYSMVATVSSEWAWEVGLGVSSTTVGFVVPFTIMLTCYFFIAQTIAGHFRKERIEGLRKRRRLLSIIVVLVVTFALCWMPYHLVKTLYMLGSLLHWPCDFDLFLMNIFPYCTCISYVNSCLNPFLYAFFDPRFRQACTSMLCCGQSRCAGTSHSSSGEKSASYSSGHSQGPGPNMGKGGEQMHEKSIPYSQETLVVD
As to the kind of experiment: Inhibition of forskolin-stimulated cAMP accumulation (DiscoverX). The assay is classed as cell-based. To be noted: 15 μmol/L forskolin, cells expressing human apelin receptor, mean ± SEM, n = replicates/experiments, read-out: pD2, inhibition of forskolin-stimulated cAMP (converted). On the procedure:
(§1) Inhibition of cAMP accumulation, β-arrestin recruitment and receptor internalization by apelin isoforms, modified and truncated apelin peptides were studied using cells expressing the human apelin receptor (DiscoverX, CA, USA) as per the manufacturer's instructions. In all assays the resulting chemiluminescent signal was measured as relative light units (RLU) using a LumiLITE™ Microplate Reader (DiscoveRx, Fremont, CA). […] Agonist responses were expressed as a % of the forskolin response. […] Data were analyzed using a 4-parameter logistic equation using GraphPad Prism 6 to determine values of potency, pD2 (−log10 EC50, where EC50 is the concentration producing half maximal response) and maximum response (EMAX). n-Values are given as number of replicates/number of experiments.
For orientation: Changes in cAMP serve as a functional read-out for many G protein-coupled receptors.

The target of assay [2] is T1, apelin receptor. Briefly: β-arrestin recruitment assay (DiscoverX). The assay is classed as cell-based. The settings on record: cells expressing human apelin receptor, mean ± SEM, n = replicates/experiments, read-out: pD2, β-arrestin recruitment (converted). Here is the method:
as §1

The target of assay [3] is T2, vascular smooth muscle apelin receptor (Homo sapiens, UniProt P35414).
T2 construct: from tissue; host or cells: endothelium-denuded human saphenous vein
T2 sequence (P35414 1-380): T1 sequence (P35414 1-380)
As to the kind of experiment: Contraction of endothelium-denuded human saphenous vein. To be noted: mean ± SEM, n = 9, read-out: pD2, contraction of saphenous vein (converted). Here is the method: Vascular smooth muscle apelin receptor-mediated contraction was exploited in a bioassay to compare the in vitro potency of apelin peptides. […] Agonist responses were expressed as a % of a terminal response to KCl (100 mmol/L). […] Data were expressed as % of the terminal response to CaCl2. Data from vascular and cardiac experiments were analyzed using a 4-prameter logistic curve (GraphPad Prism 6) to determine values of pD2 and EMAX.

The target of assay [4] is T1, apelin receptor. As to the kind of experiment: Competition binding with [Glp65,Nle75,Tyr77][125I]apelin-13 in human left ventricle homogenate. Also noted: from tissue; host or cells: human left ventricle homogenate. The settings on record: 0.1 nmol/L radioligand, 90 min, 22°C, pH 7.4, Cheng-Prusoff, mean ± SEM, n = 3. On the procedure:
Assays were performed in human heart as previously described (Brame et al., [2015]). […] Equilibrium was broken by centrifugation (20,000 g for 10 min, 4°C) and pellets washed with Tris-HCl buffer (50 mmol/L, pH 7.4, 4°C), re-centrifuged and pellets counted for detection of bound radioactivity. Competition binding data were analyzed using GraphPad Prism 6 (GraphPad Software, Inc. La Jolla, CA, USA) to obtain values of pKi (the negative log10 of the dissociation constant derived from the IC50 for the competing ligands, the radioligand concentration and radioligand affinity by the Cheng and Prusoff equation). Experiments were performed in triplicate.
Measurements are mean ± standard error of the mean (SEM). […] Cell assay pD2 values were compared by one-way ANOVA followed by Tukey's multiple comparison test.

In the case of `CSCC[C@H](NC(=O)[C@@H]1CCCN1C(=O)CNC(=O)[C@H](CCCCN)NC(=O)[C@H](Cc1c[nH]cn1)NC(=O)[C@H](CO)NC(=O)[C@H](CC(C)C)NC(=O)[C@H](CCCNC(=N)N)NC(=O)[C@@H]1CCCN1C(=O)[C@H](CCCNC(=N)N)NC(=O)[C@@H](N)CCC(N)=O)C(=O)N1CCC[C@H]1C(=O)N[C@@H](C)C(=O)O` [apelin-13(F13A), reference compound], the EC50 on apelin receptor [1] was 0.288 nM; at apelin receptor [2], 10.5 nM; in assay [3] it was 0.191 nM. On apelin receptor [4], the inhibition constant (Ki) is 8.51 nM.
